Target: BRD4 (Homo sapiens, UniProt O60885)
Experiment: BRD4 degradation assay in EOL1 cells (immunofluorescence imaging)
Conditions: read-out: BRD4 degradation in EOL1 cells (DC50); EoL-1 eosinophilic leukemia cells, 4 hours treatment, nuclear BRD4 immunofluorescence
Experimental: BRD4 Degradation Assay in EOL1 Cells
EoL-1 eosinophilic leukemia cells were seeded on day 1 at a density of 45,000 cells per well in Corning PureCoat Amine Microplates, (Corning #354719) in 45 μL/well of assay media (RPMI, 10% FBS, containing L-glutamine). After cells attached to cell plate, compounds were serially diluted ⅓ in dimethylsulfoxide (DMSO) to create 20-point dilutions across a 384 well v-bottom polypropylene microplate (Greiner #781091). 2 μL of each sample from the serial dilution was transferred to 98 μL of assay media as an intermediate dilution. 5 μL of each well of the intermediate dilution was added to 45 μL of cell plate. Columns 1, 2, 23 and 24 were treated with only 0.2% final concentration of DMSO for data normalization as “neutral controls”. After compound treatment, cell plates were stored in a 37° C. incubator for 4 hours. […]
On day-2 samples were washed 3 times with 100 μL/well of PBS. […] Quantitative fluorescence imaging of BRD4 was carried out using an Opera Phenix High-Content Screening System. […] Mean 488 intensity of BRD4 quantitated in nuclear region. […]
The individual topological polar surface area (TPSA) and cLogP values were calculated using Chemdraw v. […]

SMILES | DC50
Cc1ncsc1-c1ccc([C@@H]2NC(=O)[C@@H]3C[C@@H](O)CN3C(=O)[C@H](C(C)(C)C)NC(=O)CCOCCNC(=O)[C@@H](CNC(=O)C[C@@H]3N=C(c4ccc(Cl)cc4)c4c(sc(C)c4C)-n4c(C)nnc43)NC(=O)CNC2=O)cc1 | > 20 µM
Cc1sc2c(c1C)C(c1ccc(Cl)cc1)=N[C@@H](CC(=O)NC[C@H]1NC(=O)CNC(=O)C(C)(C)NC(=O)[C@@H]3C[C@@H](O)CN3C(=O)[C@H](C(C)(C)C)NC(=O)CSC[C@H](C(N)=O)NC1=O)c1nnc(C)n1-2 | < 1 µM

— US12187816B2, “Macrocyclic compounds and methods of use thereof” (Genentech, Inc., priority 2020, dated 2025)
